The values below are quoted from earlier work in patent US9085793B2, “Ex vivo methods to identify circulating drug metabolites with drug interaction potential” (XPD Consulting, LLC, priority 2012, dated 2015).

By UniProt entry, the sequences of proteins in these tests, tags left out.
UniProt P11712, whole entry: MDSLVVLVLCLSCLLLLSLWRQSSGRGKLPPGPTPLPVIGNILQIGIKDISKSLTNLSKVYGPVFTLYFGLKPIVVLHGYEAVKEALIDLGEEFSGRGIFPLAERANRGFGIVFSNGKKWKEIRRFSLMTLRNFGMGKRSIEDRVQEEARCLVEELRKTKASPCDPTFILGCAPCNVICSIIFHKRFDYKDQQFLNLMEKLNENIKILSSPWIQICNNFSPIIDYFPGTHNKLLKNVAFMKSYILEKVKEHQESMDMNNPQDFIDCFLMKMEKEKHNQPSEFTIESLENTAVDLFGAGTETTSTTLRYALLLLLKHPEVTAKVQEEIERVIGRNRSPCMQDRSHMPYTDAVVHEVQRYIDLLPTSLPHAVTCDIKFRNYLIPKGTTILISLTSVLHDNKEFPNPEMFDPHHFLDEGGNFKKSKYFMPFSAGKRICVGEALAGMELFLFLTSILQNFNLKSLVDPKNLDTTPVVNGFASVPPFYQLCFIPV

Where two headings read alike, the source gives them in different places.

The target in this data set is CYP2C9 (Homo sapiens, UniProt P11712). Particulars: human hepatocytes.

With `OC(Cn1cncn1)(Cn1cncn1)c1ccc(F)cc1F` [Fluconazole], the IC50 by setting is: (read-out: IC50 Medium, medium) 54 ± 2.95 µM; (read-out: IC50 Plasma, human plasma) 14.3 ± 1.27 µM.
